{"sequences": {"note": "Sequences of proteins named here, by UniProt entry; tags and fusion partners are left off. Residues count along the entry.", "UniProt O14672, 214-748 limits assumed": "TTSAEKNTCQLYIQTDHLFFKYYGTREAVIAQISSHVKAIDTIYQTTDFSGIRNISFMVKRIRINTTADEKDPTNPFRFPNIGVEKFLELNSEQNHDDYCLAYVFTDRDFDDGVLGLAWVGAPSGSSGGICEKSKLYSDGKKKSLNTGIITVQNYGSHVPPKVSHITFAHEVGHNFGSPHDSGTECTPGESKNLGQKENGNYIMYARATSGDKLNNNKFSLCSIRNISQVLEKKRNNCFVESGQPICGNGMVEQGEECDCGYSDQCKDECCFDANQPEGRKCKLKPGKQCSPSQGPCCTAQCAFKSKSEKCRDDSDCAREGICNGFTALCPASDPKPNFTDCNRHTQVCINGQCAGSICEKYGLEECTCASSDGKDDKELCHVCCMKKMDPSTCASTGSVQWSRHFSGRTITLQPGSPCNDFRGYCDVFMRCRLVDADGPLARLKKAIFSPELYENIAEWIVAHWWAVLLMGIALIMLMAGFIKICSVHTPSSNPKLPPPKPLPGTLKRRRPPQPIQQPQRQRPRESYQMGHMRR"}, "source": "PubChem BioAssay AID720582", "about": "(The Scripps Research Institute Molecular Screening Center, 2013)", "note": "The entries are a selection whose mix differs from that of the whole data set. Active and inactive are the calls of the source.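 Rule for the calls: active = inhibition above a per-campaign cutoff equal to the mean of compounds falling between control-based bounds plus 3 SD (cut at about 20% in these data); inactive = the rest.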"}
{"biological_target": "Disintegrin and metalloproteinase domain-containing protein 10 (Homo sapiens) (UniProt O14672)", "assay": "blockers of ADAM10 peptide cleavage – biochemical, QFRET, HTS, primary screen (AID 720582);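 note: 0% = DMSO wells while the 100% control is not disclosed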", "settings": "recombinant ADAM10, EDANS/DABCYL FRET peptide cleavage, 3 h; at 7 µM; stronger effect = higher value"}
{"smiles": "CP(=O)(Nc1ccccc1)Oc1ccc(F)cc1", "note": "(stereo unspecified)", "inhibition": "inactive: 2.06%"}
